Earlier results on one molecule are cited in patent US20210393618A1, “BUPRENORPHINE TO TREAT RESPIRATORY DEPRESSION” (published 2021).

For the series the following is noted: in vivo.

Some compounds may have been tested in ways that are not shown here.

As for `CCC(=O)N(c1ccccc1)C1CCN(CCc2ccccc2)CC1`, the “unchanged drug excreted in the urine” value was “less than 10%”.
